Experimental data: PubChem BioAssay AID602363 (Broad Institute, 2012)
This is a selection; strong and weak results do not stand in their true shares. Some of these compounds have results that are not shown, active ones among them. Activity calls are given as the source filed them.

Assay: modulators of yeast start codon fidelity, primary screen, whole organism, S. cerevisiae, single point, plate reader (AID 602363);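 further: firefly luciferase made from a UUG start codon reports start codon fidelity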
Conditions: S. cerevisiae UUG-firefly luciferase reporter, luminescence/redox ratio; at 18.7 µM; stronger effect = higher value

SMILES | activity score
CN1[C@@H]2CC[C@H]1CC(OC(=O)C(O)(c1ccccc1)c1ccccc1)C2 (some centres undefined) | inactive: -0.856%
Cc1ccc(C(=O)NCC2(N3CCCCC3)CCCCC2)cc1 | inactive: 3.29%
CC(C)N1C(=O)CC2(CCN(CCOC(=O)C(O)(c3ccccc3)c3ccccc3)CC2)C1=O | inactive: -16.8%
COc1cc(SC)ccc1C(=O)NCC1(N(C)C)CCCCC1 | inactive: -25.9%
CCN(CC)CC(C)C(C)OC(=O)C(O)(c1ccccc1)c1ccccc1 (centres undefined) | inactive: -0.526%
CN(C)c1ccc(C(=O)NCC2(N(C)C)CCCCC2)cc1 | inactive: -13.2%
O=C(NCC1(N2CCCCC2)CCCCC1)c1cccc(Br)c1 | inactive: -13.4%
Cc1cc(C(=O)NCC2(N3CCCCC3)CCCCC2)ccc1[N+](=O)[O-] | inactive: -10.1%
COc1ccc(C(=O)NCC2(N(C)C)CCCCC2)cc1 | inactive: 7.78%
O=C(NCC1(N2CCCCC2)CCCCC1)c1cc(F)c(F)cc1Cl | inactive: -1.38%
COc1cc(C(=O)NCC2(N(C)C)CCCCC2)c([N+](=O)[O-])cc1OC | inactive: -14.4%
CN(C)C1(CNC(=O)c2ccc(Br)cc2)CCCCC1 | inactive: -16.2%
O=C(NCC1(N2CCCCC2)CCCCC1)c1cccc(Cl)c1 | inactive: -10.6%
COc1ccc(Cl)cc1C(=O)NCC1(N(C)C)CCCCC1 | inactive: -1.83%
CN(C)c1cccc(C(=O)NCC2(N(C)C)CCCCC2)c1 | inactive: -8.16%
O=C(OCCN1CCCC1)C(O)(c1ccccc1)c1ccccc1 | inactive: -14%
CC(C)Oc1ccc(C(=O)NCC2(N(C)C)CCCCC2)cc1 | inactive: -9.58%
COc1ccc(Br)c(C(=O)NCC2(N3CCCCC3)CCCCC2)c1 | inactive: -2.54%
C=C(C)C#CC(O)(C(=O)OC1CCN(C)CC1)c1ccccc1 (centres undefined) | inactive: -7.42%
